Assay results published in patent US20110195929A1, “COMPOUNDS FOR THE TREATMENT OF FLAVIVIRAL INFECTIONS” (SUMMIT CORPORATION PLC, priority 2008, published 2011).

Tested on: HCV
Experiment: Cell-based HCV infection NS3 protease FRET assay in DMSO-Huh7 cells; note: test concentration or dose not given here
Set-up: species or system hepatitis C virus (HCV)
Details: DMSO-Huh7 cells infected with HCV at 0.05 ffu/cell; HCV NS3 protein levels by FRET, day 6 p.i.

(2R,3S,4S)-4-hydroxy-2-(4-methoxybenzyl)pyrrolidin-3-yl acetate [Compound 5]
Ave % inhibition: +++++ (+++++: ≧80%)
